{"source": "ChEMBL document CHEMBL1141625", "about": "“Potent, selective MCH-1 receptor antagonists” (Bioorg Med Chem Lett, 2008)", "target": "Mu-type opioid receptor (Homo sapiens, UniProt P35372)", "assay": "Agonist activity at mu opioid receptor", "data": [{"smiles": "CO[C@@H]1CN(C[C@H]2Cc3ccc(Br)cc3C2)CC[C@H]1n1c(C(C)(C)O)nc2cc(C)ccc21", "values": [{"measurement": "EC50", "value": 24.9, "unit": "µM"}]}]}
